Values quoted from earlier work, collected in patent US4296032A (priority 1979, dated 1981).

Details: isomerisation to a mixture with the 6-α-compound; cited from earlier work

Compound: CC1(C)S[C@@H]2[C@H](Br)C(=O)N2[C@H]1C(=O)O
- stability: tends to be unstable and is apparently readily isomerised to a mixture with the 6-α-compound
